Experimental fraction unbound values from OPERA 2.9

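These are experimental values that the OPERA curators gathered from public databases to train and test their QSAR models. A listed value is a point estimate from one report or more. How each value was measured is not recorded, so precision varies. The measured form (salt, isomer or mixture) is not always the one drawn. Some entries may be limits or estimates that an upstream database listed as plain numbers.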

The unbound fraction in human plasma runs from 0 (all bound) to 1 (all free). Cells with "–" have no entry in this list.

structure (SMILES)	name	fraction unbound
CCN1CCC2(CC1)COc1cc3c(cc12)N(C(=O)c1ccc(-c2ccc(-c4nnc(C)o4)cc2C)cc1)CC3.Cl	–	0.015
CC[C@@]1(O)C[N@@]2CC[C@H]1C[C@@H]2[C@@H](O)c1ccnc2ccc(OC)cc12	3-Hydroxyhydroquinidine	0.47
Cc1cnc(C2=NC(=O)C(C)(C(C)C)N2)c(C(=O)O)c1 (centres undefined)	Imazapic	0.5475
CC1=C(C(=O)Nc2ccccc2)SCCO1	Carboxin	0.1758
COP(=O)(OC)SCn1c(=O)oc2cc(Cl)cnc21	Azamethiphos	0.553
CC(C)(C)C(O)/C(=Cc1ccc(Cl)cc1Cl)/[n]1c[n]c[n]1 (stereo partly drawn)	–	0.01924
COc1nc(NC(C)C)nc(NC(C)C)n1	Prometon	0.0157
C=CC(=O)NCNC(=O)C=C	N,N'-Methylenebisacrylamide	1
Nc1cc2c3c(c1)C(c1ccccc1)=N[C@@H](NC(=O)c1cccnc1)C(=O)N3CC2	Ci-1044	0.198
CC[C@@H](CO)NC(=O)[C@@H]1C=C2c3cccc4c3c(cn4C)C[C@H]2N(C)C1	Methysergide	0.34
Nc1ccc(Cl)cc1N	4-chloro-1,2-diaminobenzene	0.373
CCOC(=O)[C@H]1[C@@H](OC(=O)c2ccccc2)C[C@@H]2CC[C@H]1N2C	Cocaethylene	0.64
CCOP(=O)(NC(C)C)Oc1ccc(SC)c(C)c1 (centres undefined)	Fenamiphos	0.03995
N#C/N=C1SCCN1Cc1ccc(Cl)[n]c1	–	0.2866
COC(=O)c1c(C(F)F)nc(C(F)(F)F)c(C2=NCCS2)c1CC(C)C	Thiazopyr	0.01084
CCCOc1nn(C(=O)[N-]S(=O)(=O)c2ccccc2C(=O)OC)c(=O)n1C.[Na+]	Propoxycarbazone-sodium	0.00891
CN1CSC(=S)N(C)C1	Dazomet	0.8909
C[C@@H]1CN([C@H]2CC[C@](C#N)(c3ccc(F)cc3)CC2)CC[C@]1(C(=O)O)c1ccccc1	Levocabastine	0.45
CN(C)C(=O)C(c1ccccc1)c1ccccc1	Diphenamid	0.301
Cc1cc(C)nc(Nc2ccccc2)n1	Pyrimethanil	0.01746
C=C(Cl)Cl	1,1-dichloroethylene	0.4279
CCCN1C[C@H](CSC)C[C@@H]2c3cccc4[nH]cc(c34)C[C@H]21	Pergolide	0.1
Clc1ccc(Cl)cc1	1,4-Dichlorobenzene	0.02291
CNC(=O)Oc1cccc2c1OC(C)(C)C2	Carbofuran	0.4213
CCN(CC)CCN1C(=O)CN=C(c2ccccc2F)c2cc(Cl)ccc21	Flurazepam	0.03
Cc1ccc(N)cc1Cl	3-chloro-4-methylaniline	0.145
CN1C(=O)C(C)(C2=CCCCC2)C(=O)N=C1O (centres undefined)	–	0.5283
CC(=O)C[C@@H](c1ccccc1)C1C(=O)Oc2ccccc2C1O (stereo partly drawn)	(R)-Warfarin	0.023
Cc1cc(O)ccc1Cl	4-chloro-3-methylphenol	0.0723
CCCSP(=O)(OCC)SCCC	Ethoprop	0.09258
CC(COc1ccc(Oc2ccccc2)cc1)Oc1ccccn1 (centres undefined)	Pyriproxyfen	0.00175
CC(C)(c1cc(Cl)c(O)c(Cl)c1)c1cc(Cl)c(O)c(Cl)c1	–	0.00598
COC(=O)c1ccccc1S(=O)(=O)NC(=O)Nc1nc(C)nc(OC)n1	Metsulfuron-methyl	0.08667
FC(F)(F)Br	Bromotrifluoromethane	0.838
Nc1c(Cl)c(F)nc(OCC(=O)O)c1Cl	Fluroxypyr	0.09166
O=C(Nc1ccccc1)Nc1cnns1	Thidiazuron	0.0284
O.O.O.[PbH2+2].CC([O-])=O.CC([O-])=O	–	0.88
O=P(OC(CCl)CCl)(OC(CCl)CCl)OC(CCl)CCl	Tris(1,3-dichloro-2-propyl) phosphate	0.01078
O=C(O)C1C2CCC(O2)C1C(=O)O (centres undefined)	Endothal	0.867
O=C(O)C(F)(F)C(F)(F)C(F)(F)C(F)(F)C(F)(F)C(F)(F)F	Perfluoroheptanoic acid	0.00164
O=C(Nc1ccccc1)c1ccccc1I	Benodanil	0.07513
O=C(O)COc1ccc(Cl)cc1Cl	2,4-Dichlorophenoxyacetic acid	0.04102
OCCOc1ccccc1	2-Phenoxyethanol	0.2966
CN(C)C(=O)Oc1cccc([N+](C)(C)C)c1	Neostigmine	0.9317
CN1CC[C@]23CCCC[C@H]2[C@H]1Cc1ccc(O)cc13	Levorphanol	0.6
CCOc1nc(F)cc2nc(S(=O)(=O)Nc3c(Cl)cccc3Cl)nn12	Diclosulam	0.006747

The first 3 entries again:

| structure (SMILES) | name | fraction unbound |
|---|---|---|
| CCN1CCC2(CC1)COc1cc3c(cc12)N(C(=O)c1ccc(-c2ccc(-c4nnc(C)o4)cc2C)cc1)CC3.Cl | – | 0.015 |
| CC[C@@]1(O)C[N@@]2CC[C@H]1C[C@@H]2[C@@H](O)c1ccnc2ccc(OC)cc12 | 3-Hydroxyhydroquinidine | 0.47 |
| Cc1cnc(C2=NC(=O)C(C)(C(C)C)N2)c(C(=O)O)c1 (centres undefined) | Imazapic | 0.5475 |

From the experimental data distributed with OPERA 2.9.